Source: US12678489B2, “Multi-receptor agonist and medical use thereof” (JIANGSU HANSOH PHARMACEUTICAL GROUP CO., LTD., priority 2019, dated 2026)

Sequences of proteins named here, by UniProt entry; tags and fusion partners are left off. Residues count along the entry.
UniProt P43220, 24-463: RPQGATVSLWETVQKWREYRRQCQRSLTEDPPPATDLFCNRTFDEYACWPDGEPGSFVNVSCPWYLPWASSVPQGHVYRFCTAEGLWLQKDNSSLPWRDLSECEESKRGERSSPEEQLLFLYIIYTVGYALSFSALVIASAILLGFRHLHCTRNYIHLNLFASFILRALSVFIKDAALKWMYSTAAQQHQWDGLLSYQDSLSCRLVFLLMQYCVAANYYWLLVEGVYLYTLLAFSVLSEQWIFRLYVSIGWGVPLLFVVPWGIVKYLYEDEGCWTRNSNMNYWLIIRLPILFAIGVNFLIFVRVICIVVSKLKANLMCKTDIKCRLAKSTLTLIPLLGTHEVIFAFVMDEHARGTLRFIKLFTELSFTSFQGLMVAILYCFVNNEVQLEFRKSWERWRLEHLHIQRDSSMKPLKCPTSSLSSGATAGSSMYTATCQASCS

Key:
[1] = molecular target: T1, human GLP-1R (Homo sapiens, UniProt P43220); experiment: Agonistic activity for GLP-1R, cAMP HTRF in CHO-K1/GLP-1R/CRE-luc stably transfected cells; format: cell-based
T1 construct: expressed in transfected cells; host or cells: CHO-K1 (stably transfected, with CRE-luc reporter)

[2] = molecular target: T2, human GIPR (Homo sapiens, UniProt P48546); experiment: Agonistic activity for GIPR, cAMP HTRF in CHO-K1 cells transiently transfected with hGIPR; format: cell-based
T2 construct: expressed in transfected cells; host or cells: wild-type CHO-K1, transient transfection with hGIPR plasmid (Fugene HD)
T2 sequence (P48546 22-466): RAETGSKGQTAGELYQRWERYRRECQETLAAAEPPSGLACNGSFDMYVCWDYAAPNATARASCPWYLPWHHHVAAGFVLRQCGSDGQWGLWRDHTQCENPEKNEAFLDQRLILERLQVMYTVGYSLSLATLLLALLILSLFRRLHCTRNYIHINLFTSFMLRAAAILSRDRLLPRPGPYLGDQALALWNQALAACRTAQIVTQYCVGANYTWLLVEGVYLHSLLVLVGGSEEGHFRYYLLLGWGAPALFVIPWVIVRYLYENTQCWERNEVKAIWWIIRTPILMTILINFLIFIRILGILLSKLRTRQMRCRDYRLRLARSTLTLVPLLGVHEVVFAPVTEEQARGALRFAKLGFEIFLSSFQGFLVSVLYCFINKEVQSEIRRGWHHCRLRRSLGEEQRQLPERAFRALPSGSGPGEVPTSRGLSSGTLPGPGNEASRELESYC
Method: Wild-type CHO-K1 cells were collected, and the cell suspension was adjusted to an appropriate density, plated in a 6-well plate at 2 mL per well, and placed in a 37° C., 5% CO2 incubator for adhesion overnight. The mixture for transfection (hGIPR plasmid, Fugene HD (Promega Cat #E2311), OptiMEM (Gibco Cat #31985070)) was mixed well, placed at room temperature for 15 minutes, and was added at 100 μL to the corresponding cell well. After transfection of CHO-K1 cells for 24 h, hGIPR was over-expressed on the cell surface. The cells in 6-well plate were collected after the transient transfection, and were washed once with the experimental buffer (DMEM/F12 medium (Gibco Cat #11330032) comprising 0.1% casein (Sigma Cat #C3400)), and the cell density was adjusted with the experimental buffer. The cells were plated at a density of 5000 cells/5 μL/well in a 384-well plate (Sigma Cat #CLS4514), and then 2.5 μL of IBMX working solution (Sigma Cat #17018) prepared with buffer solution (the final concentration of IBMX was 0.5 mM) and 2.5 μL of the gradient diluted polypeptide sample were added into each well, centrifuged at 1000 rpm for 1 min, shaken for 30 seconds to mix well, and incubated at room temperature for 30 minutes. Cisbio cAMP-Gs Dynamic kit (Cisbio Cat #62 AM4PEC) was used for detection. cAMP-d2 and Anti-cAMP-Eu3+-Cryptate were diluted with 20-fold cAMP Lysis & Detection Buffer respectively, and mixed well. 5 μL of the diluted cAMP-d2 solution was added into each well, and then 5 μL of the diluted Anti-cAMP-Eu3+-Cryptate solution was added into each well, shaken for 30 seconds to mix well, and incubated at room temperature for 1 hour in the dark.
HTRF signal was read with Biotek Synergy H1 microplate reader, with the excitation wavelength of 320 nm, and emission wavelength of 620 nm and 665 nm. The signal ratio (665 nm/620 nm*10,000) was calculated, and the signal ratio was nonlinear fitted to the sample concentration with four-parameter equation in GraphPad Prism 6, resulting in the EC50 values.

[3] = Stability of the compounds in SD rat plasma (LC-MS); format: in vitro ADME; conditions: for Relative content of the residual compounds in plasma (%) 0 min: 0 min (control, set to 100%)
Method: Five microliters of samples with concentrations of 20, 50, 100, 200, 500, 1000, 2000, 5000, 10000 ng/ml were added into 45 microliters of SD rat plasma, and the compound contents were detected by LC-MS, and a standard curve was plotted. 5 microliters of the polypeptide solution with a concentration of 1 mg/ml was added into 45 microliters of SD rat plasma. Five samples were prepared for each test compound, and 1 sample was taken out at 0 min, 30 min, 60 min, 120 min, and 240 min respectively. The content of the residual compounds was detected by LC-MS. The content at 0 min was used as control (100%), and the relative contents of the residual compound in the sample at other time points were calculated. The LC-MS method for the detection of the compounds was as follows: 5% acetonitrile solution was prepared as solution A, and 95% acetonitrile solution was prepared as solution B; 15 microliters of samples were injected at a flow rate of 0.6 ml/min, the time duration and the solution gradient ratio were as shown in the following table; the content of the compound was detected with Raptor Biphenyl 2.7 micron detection column.

[4] = Pharmacokinetics in mice, single intravenous injection; format: in vivo; conditions: Balb/c mice, intravenous (tail vein), 30 nanomoles per kilogram, plasma
Method: Male Balb/c mice weighing 18-30 grams and 7-9 weeks old were purchased from Shanghai Jiesijie Laboratory Animal Co., Ltd. The numbered compounds were prepared with 20 mM citrate buffer (pH=7.0), and then were injected into the mice via tail vein at a dose of 30 nanomoles per kilogram of body weight. 0.2 ml of the blood was sampled at time points of 0 hour, 0.083 hour, 0.25 hour, 0.5 hour, 1 hour, 2 hour, 4 hour, 6 hour, 8 hour, 24 hour and 32 hour. The collected mouse blood was centrifuged at 6000 rpm for 6 minutes at a temperature of 4° C. to isolate plasma. The content of the numbered compound in mouse plasma was detected by the experimental method of Test example 3.3.

[5] = Pharmacokinetics in rats, single subcutaneous injection; format: in vivo; conditions: SD rats, 50 nanomoles per kilogram, plasma
Method: Male SD rats weighing 150-300 grams were purchased from Shanghai Jiesijie Laboratory Animal Co., Ltd. The numbered compounds were prepared with 20 mM citrate buffer (pH=7.0), and then were injected into the rat via subcutaneous injection at a dose of 50 nanomoles per kilogram of body weight. 0.2 ml of the blood was sampled at time points of 0 hour, 0.5 hour, 1 hour, 2 hour, 4 hour, 6 hour, 8 hour, 24 hour, 32 hour, 48 hour, 72 hour, 96 hour and 120 hour. The collected rat blood was centrifuged at 6000 rpm for 6 minutes at a temperature of 4° C. to isolate plasma. The content of the numbered compound in rat plasma was detected by the experimental method of Test example 3.3.

[6] = Table 4, polypeptide backbone compounds
[7] = Table 5, polypeptide compounds coupled to fatty acid

With “H-HAibEGTFTSDVSSYLEEEAAKEFIAWLVRGGPSSGAPPPSK-NH2 [Compound 1]” as the substance, how does the EC50 [1, 6] read?
The EC50 was 0.005 nM.

What about the EC50 [2, 6] of the same substance?
The EC50 was > 10 nM.

Which results are given for “H-HAibEGTFTSDVSSYLEEEAAKEFVNWLLAGGPSSGAPPPSK-NH2 [Compound 5]”?
EC50 [1, 6]: 0.004 nM; EC50 [2, 6]: > 10 nM

With “H-YAibEGTFTSDYSIYLDKIAAK(OEG-OEG-yGlu-C18-OH)EFVNWLLAGGPSSGAPPPS-NH2 [Compound 60]” as the substance, how does the EC50 [1, 7] read?
The EC50 was 0.2 nM.

What about the EC50 [2, 7] of the same substance?
Its EC50 is 0.02 nM.

With “H-YAibEGTFTSDYSIYLDKIAAQEFVNWLL AGGPSSGAPPPSK(OEG-OEG-yGlu-C18-OH)-NH2 [Compound 62]” as the substance, how does the EC50 [1, 7] read?
Its EC50 is 0.32 nM.

And the EC50 [2, 7]?
Its EC50 is 0.045 nM.

Which EC50 [1, 7] does the source give for “H-YAibEGTFTSDYSIYLEKEAAK(OEG-OEG-yGlu-C18-OH)EFVNWLLAGGPSSGAPPPS-NH2 [Compound 27]” here?
The EC50 was 0.12 nM.

And the EC50 [2, 7]?
Its EC50 is 0.11 nM.

Which EC50 [1, 7] does the source give for “H-YAibEGTFTSDYSIYLEKEAAKEFVNWLLAGGPSSGAPPPSK(OEG-OEG-yGlu-C18-OH)-NH2 [Compound 25]” here?
The EC50 was 0.031 nM.

What about the EC50 [2, 7] of the same substance?
The EC50 was 0.059 nM.

Which EC50 [1, 7] does the source give for “H-YAibEGTFTSDYSIYLEKIAAK(OEG-OEG-yGlu-C18-OH)EFVNWLLAGGPSSGAPPPS-NH2 [Compound 30]” here?
The EC50 was 0.058 nM.

And the EC50 [2, 7]?
Its EC50 is 0.021 nM.

With “H-YAibEGTFTSDYSIYLEKIAAK(OEG-OEG-yGlu-C20-OH)EFVNWLLAGGPSSGAPPPS-NH2 [Compound 75]” as the substance, how does the EC50 [1, 7] read?
The EC50 was 0.2 nM.

And the EC50 [2, 7]?
The EC50 was 0.16 nM.

And the “Relative content of the residual compounds in plasma (%) 0 min” value ([3]; Table 7)?
Its value is 100.00%.

What about the “Relative content of the residual compounds in plasma (%) 30 min” value ([3]; Table 7) of the same substance?
Its value is 101.51%.

And the “Relative content of the residual compounds in plasma (%) 60 min” value ([3]; Table 7)?
The value was 92.07%.

And the “Relative content of the residual compounds in plasma (%) 120 min” value ([3]; Table 7)?
Its value is 84.74%.

And the “Relative content of the residual compounds in plasma (%) 240 min” value ([3]; Table 7)?
The value was 57.83%.

What does the source list for “H-YAibEGTFTSDYSIYLEKIAAQEFVNWLIAGGPSSGAPPPS-NH2 [Compound 80]”?
EC50 [1, 6]: 0.008 nM; EC50 [2, 6]: 0.008 nM

Which EC50 [1, 7] does the source give for “H-YAibEGTFTSDYSIYLEKIAAQEFVNWLIAGGPSSGAPPPSK(OEG-OEG-yGlu-C20-OH)-NH2 [Compound 83]” here?
Its EC50 is 0.028 nM.

What about the EC50 [2, 7] of the same substance?
Its EC50 is 0.032 nM.

Which EC50 [1, 7] does the source give for “H-YAibEGTFTSDYSIYLEKIAAQEFVNWLLAGGPSSGAPPPSK(OEG-OEG-yGlu-C18-OH)-NH2 [Compound 28]” here?
The EC50 was 0.074 nM.

What about the EC50 [2, 7] of the same substance?
The EC50 was 0.02 nM.

And the AUCInf [4]?
The AUCInf was 9500 ng·h/mL.

What about the T1/2 [4] of the same substance?
The T1/2 was 4.7 h.

With “H-YAibEGTFTSDYSIYLEKIAAQEFVNWLLAGGPSSGAPPPSK(OEG-OEG-yGlu-C20-OH)-NH2 [Compound 74]” as the substance, how does the EC50 [1, 7] read?
The EC50 was 0.068 nM.

And the EC50 [2, 7]?
The EC50 was 0.046 nM.

And the “Relative content of the residual compounds in plasma (%) 0 min” value ([3]; Table 7)?
The value was 100.00%.

What about the “Relative content of the residual compounds in plasma (%) 30 min” value ([3]; Table 7) of the same substance?
Its value is 95.54%.

What about the “Relative content of the residual compounds in plasma (%) 60 min” value ([3]; Table 7) of the same substance?
Its value is 104.74%.

What about the “Relative content of the residual compounds in plasma (%) 120 min” value ([3]; Table 7) of the same substance?
Its value is 100.10%.

And the “Relative content of the residual compounds in plasma (%) 240 min” value ([3]; Table 7)?
The value was 91.16%.

What about the “relative content in plasma at a time point of 4 hour” value ([3]; 4 hour) of the same substance?
The value was > 90%.

What about the AUCInf [4] of the same substance?
Its AUCInf is 30698 ng·h/mL.

And the T1/2 [4]?
Its T1/2 is 19.5 h.

What about the AUCInf [5] of the same substance?
Its AUCInf is 17673 ng·h/mL.

What about the T1/2 [5] of the same substance?
Its T1/2 is 15.9 h.

What does the source list for “H-YAibEGTFTSDYSIYLEKIAAQEFVNWLLAGGPSSGAPPPSK-NH2 [Compound 14]”?
EC50 [1, 6]: 0.008 nM; EC50 [2, 6]: 0.006 nM; Relative content of the residual compounds in plasma (%) 0 min ([3]; Table 6): 100.00%; Relative content of the residual compounds in plasma (%) 30 min ([3]; Table 6): 106.04%; Relative content of the residual compounds in plasma (%) 60 min ([3]; Table 6): 107.00%; Relative content of the residual compounds in plasma (%) 120 min ([3]; Table 6): 112.14%; Relative content of the residual compounds in plasma (%) 240 min ([3]; Table 6): 102.16%

What does the source list for “H-YAibEGTFTSDYSIYLEKIAAQEFVNWLLAGK(OEG-OEG-yGlu-C18-OH)PSSGAPPPS-NH2 [Compound 29]”?
EC50 [1, 7]: 0.24 nM; EC50 [2, 7]: 0.015 nM
